# Assay: Phase 1 MAD study of ALT-801: ketone body production
# Type: in vivo, human
# Procedure: Blood samples are collected for evaluation of ketone bodies after the subject has fasted overnight for at least 10 hours, 1 day prior to the first and second doses, and 6 days after the last dose. Blood samples for evaluation of FGF-21 and adiponectin are collected after the subject has fasted overnight for at least 10. Following a minimum 10 hour fast, blood is collected for assessment of lipids, including cholesterol (total, HDL, LDL), Apo A and B, lipoprotein(a), TG, and tripalmitin, prior to the first dose and 6 days after the last dose of study medication, as indicated in Table 4. Blood is collected for the assessment of inflammatory markers, including TNF-α, hs-CRP, leptin, MCP-1, and IL-6 prior to the first dose and 6 days after the last dose of study medication, as indicated in Table 4. Glucose homeostasis is assessed by 24-hour CGM using a Dexcom G6 CGM during the periods indicated in Part 1 and Part 2.
compound,measurement,setting,value
"CC[C@H](C)[C@H](NC(=O)[C@H](Cc1ccccc1)NC(=O)[C@H](CCC(=O)O)NC(=O)[C@@H]1CCCCNC(=O)CC[C@H](NC(=O)[C@H](CC(=O)O)NC(=O)[C@H](CC(C)C)NC(=O)[C@H](Cc2ccc(O)cc2)NC(=O)[C@H](CCCCN)NC(=O)[C@H](CO)NC(=O)[C@H](Cc2ccc(O)cc2)NC(=O)[C@H](CC(=O)O)NC(=O)[C@H](CO)NC(=O)[C@@H](NC(=O)[C@H](Cc2ccccc2)NC(=O)[C@@H](NC(=O)CNC(=O)[C@H](CCC(N)=O)NC(=O)C(C)(C)NC(=O)[C@@H](N)Cc2c[nH]cn2)[C@@H](C)O)[C@@H](C)O)C(=O)N[C@@H](CCCCNC(=O)[C@H]2O[C@@H](OCCCCCCCCCCCCCCCCCC(=O)O)[C@H](O)[C@@H](O)[C@@H]2O)C(=O)N[C@@H](C)C(=O)N[C@@H](C)C(=O)N1)C(=O)N[C@@H](CCC(N)=O)C(=O)N[C@@H](Cc1c[nH]c2ccccc12)C(=O)N[C@@H](CC(C)C)C(=O)N[C@@H](CC(C)C)C(=O)N[C@@H](CCC(N)=O)C(=O)N[C@H](C(N)=O)[C@@H](C)O [ALT-801, pemvidutide]","Ketone bodies, mean (SD)","Table 17, Baseline, 1.2 mg group",2.2 (0.9) mmol/L
same,"Ketone bodies, mean (SD)","Table 17, Baseline, 1.8 mg group",1.3 (0.7) mmol/L
same,"Ketone bodies, mean (SD)","Table 17, Baseline, 2.4 mg group",1.8 (0.6) mmol/L
same,"Ketone bodies, mean (SD)","Table 17, Week 12, 1.2 mg SC once weekly",6.1 (10.2) mmol/L
same,"Ketone bodies, mean (SD)","Table 17, Week 12, 1.8 mg SC once weekly",9.3 (11.1) mmol/L
same,"Ketone bodies, mean (SD)","Table 17, Week 12, 2.4 mg SC once weekly",7.5 (3.8) mmol/L
same,"Ketone bodies, mean (SD)","Table 23, Baseline, 1.2 mg group",0.12 (0.05) mmol/L
same,"Ketone bodies, mean (SD)","Table 23, Baseline, 1.8 mg group",0.07 (0.04) mmol/L
same,"Ketone bodies, mean (SD)","Table 23, Baseline, 2.4 mg group",0.10 (0.04) mmol/L
same,"Ketone bodies, mean (SD)","Table 23, Week 12, 1.2 mg SC once weekly",0.34 (0.57) mmol/L
same,"Ketone bodies, mean (SD)","Table 23, Week 12, 1.8 mg SC once weekly",0.52 (0.62) mmol/L
same,"Ketone bodies, mean (SD)","Table 23, Week 12, 2.4 mg SC once weekly",0.42 (0.21) mmol/L
same,"ketone body production, in words",in vivo,improved
